{
  "sequences": {"note": "The chains behind the UniProt entries cited, without tags or fusion partners. Where a name states a change or a piece, a line headed by the entry shows the natural chain unless it says otherwise. A line that says so, or that is headed by a name, gives the form on record, which may keep a tag or linker. Residues count along the entry.", "UniProt A4ECA9": "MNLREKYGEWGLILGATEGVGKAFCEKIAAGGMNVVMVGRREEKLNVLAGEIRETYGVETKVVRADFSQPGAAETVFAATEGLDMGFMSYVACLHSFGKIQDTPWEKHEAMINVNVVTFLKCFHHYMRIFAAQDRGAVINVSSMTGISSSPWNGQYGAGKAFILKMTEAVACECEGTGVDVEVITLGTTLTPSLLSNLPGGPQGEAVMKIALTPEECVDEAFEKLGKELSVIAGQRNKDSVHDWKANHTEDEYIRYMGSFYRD", "UniProt P0AET8, 1-255 with tags or gaps D42G/I43R": "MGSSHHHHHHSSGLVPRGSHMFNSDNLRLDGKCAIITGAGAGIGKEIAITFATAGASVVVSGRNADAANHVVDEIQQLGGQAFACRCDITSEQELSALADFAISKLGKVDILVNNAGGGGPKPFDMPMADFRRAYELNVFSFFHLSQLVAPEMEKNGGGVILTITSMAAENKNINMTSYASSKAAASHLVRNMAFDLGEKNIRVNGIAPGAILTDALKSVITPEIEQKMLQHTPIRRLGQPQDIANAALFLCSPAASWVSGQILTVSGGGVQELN", "UniProt P0AET8, 1-255 with tags or gaps": "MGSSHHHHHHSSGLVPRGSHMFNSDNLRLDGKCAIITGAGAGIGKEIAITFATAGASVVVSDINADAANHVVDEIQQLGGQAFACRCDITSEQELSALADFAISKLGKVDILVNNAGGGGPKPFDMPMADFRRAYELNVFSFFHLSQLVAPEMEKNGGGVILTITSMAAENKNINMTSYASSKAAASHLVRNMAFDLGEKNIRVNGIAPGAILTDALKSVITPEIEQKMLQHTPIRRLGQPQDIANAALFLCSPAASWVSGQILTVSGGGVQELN"},
  "source": "patent US11634743B2",
  "about": "“Coupled, self-sufficient biotransformation of chenodeoxcholic acid to ursodeoxycholic acid and novel enzyme mutants applicable in said process” (Pharmazell GmbH, priority 2016, dated 2023)",
  "key": {"[1]": {"molecular_target": "7β-HSDH obtainable from Collinsella aerofaciens DSM 3979 (Collinsella aerofaciens, UniProt A4ECA9)", "conditions": "cited from earlier work; for vmax: 1 U = 1 μmol/min"}, "7α-HSDH D42G/I43R": {"molecular_target": "7α-HSDH D42G/I43R (Escherichia coli, UniProt P0AET8, D42G/I43R)", "test": "Michaelis-Menten kinetics of 7α-HSDH D42G/I43R NADP-dependent mutant (E. coli), purified protein"}, "7α-HSDH (wildtype)": {"molecular_target": "7α-HSDH (wildtype) (Escherichia coli, UniProt P0AET8)", "test": "Michaelis-Menten kinetics of 7α-HSDH wildtype (E. coli), purified protein"}, "[2]": {"conditions": "NADP^+ varied 10 μM-5 mM, 1 mM CDCA"}, "[3]": {"conditions": "apparent value, CDCA varied 10 μM-30 mM, constant 0.5 mM NADP^+"}, "[4]": {"conditions": "CDCA varied 10 μM-30 mM, constant 0.5 mM NAD^+"}},
  "data": [
    {"smiles": "C[C@H](CCC(=O)O)[C@H]1CC[C@H]2[C@@H]3[C@@H](O)C[C@@H]4C[C@H](O)CC[C@]4(C)[C@H]3CC[C@]12C", "values": [
      {"measurement": "vmax", "setting": "[1]", "value": 38.17, "unit": "U/mg protein"},
      {"measurement": "Km", "setting": "[1]", "value": 6.23, "unit": "µM"},
      {"measurement": "kcat", "setting": "[1]", "value": "1179.39 1 μmol/(μmol × min)"}
    ]},
    {"smiles": "NC(=O)c1ccc[n+]([C@@H]2O[C@H](COP(=O)([O-])OP(=O)(O)OC[C@H]3O[C@@H](n4cnc5c(N)ncnc54)[C@H](OP(=O)(O)O)[C@@H]3O)[C@@H](O)[C@H]2O)c1", "values": [
      {"measurement": "vmax", "setting": "[1]", "value": 30.58, "unit": "U/mg protein"},
      {"measurement": "kcat", "setting": "[1]", "value": "944.95 1 μmol/(μmol × min)"},
      {"measurement": "Km", "setting": "7α-HSDH D42G/I43R; [2]", "value": 314, "unit": "µM"},
      {"measurement": "vmax", "setting": "7α-HSDH D42G/I43R; [2]", "value": "158.7 ± 7.2", "unit": "U/mg"}
    ]},
    {"smiles": "C[C@H](CCC(=O)O)[C@H]1CC[C@H]2[C@@H]3[C@H](O)C[C@@H]4C[C@H](O)CC[C@]4(C)[C@H]3CC[C@]12C", "note": "[listing 1 of 2 here]", "values": [
      {"measurement": "Ki", "setting": "7α-HSDH (wildtype); substrate inhibition, CDCA varied 10 μM-30 mM, constant 0.5 mM NAD^+", "value": 2.96, "unit": "mM"},
      {"measurement": "Km", "setting": "7α-HSDH D42G/I43R; [3]", "value": 328, "unit": "µM"}
    ]},
    {"smiles": "C[C@H](CCC(=O)O)[C@H]1CC[C@H]2[C@@H]3[C@H](O)C[C@@H]4C[C@H](O)CC[C@]4(C)[C@H]3CC[C@]12C", "note": "[listing 2 of 2 here]", "values": [
      {"measurement": "substrate inhibition (Michaelis-Menten graphs)", "setting": "7α-HSDH (wildtype); CDCA", "value": "show a substrate inhibition for CDCA"},
      {"measurement": "Km", "setting": "7α-HSDH (wildtype); [4]", "value": 56.1, "unit": "µM"},
      {"measurement": "vmax", "setting": "7α-HSDH (wildtype); [4]", "value": "193.3 ± 7.9", "unit": "U/mg"},
      {"measurement": "substrate inhibition (Michaelis-Menten graphs)", "setting": "7α-HSDH D42G/I43R; CDCA, compared with wildtype", "value": "inhibition is more pronounced"},
      {"measurement": "vmax", "setting": "7α-HSDH D42G/I43R; [3]", "value": "^a) 167.8 ± 6.3 U/mg"}
    ]},
    {"smiles": "C[C@H](CCC(=O)O)[C@H]1CC[C@H]2[C@@H]3C(=O)C[C@@H]4CC(=O)CC[C@]4(C)[C@H]3CC(=O)[C@]12C", "values": [
      {"measurement": "vmax", "setting": "[1]", "value": 28.33, "unit": "U/mg protein"},
      {"measurement": "Km", "setting": "[1]", "value": 9.23, "unit": "µM"},
      {"measurement": "kcat", "setting": "[1]", "value": "875.35 1 μmol/(μmol × min)"}
    ]}
  ]
}
